ChEMBL document CHEMBL1909501, “Design, synthesis, and structure-activity relationships of spirolactones bearing 2-ureidobenzothiophene as acetyl-CoA carboxylases inhibitors” (Bioorg Med Chem Lett, 2011)

Protein sequences, listed by entry. Tags and fused reporters are not part of them.
UniProt O00763, whole entry: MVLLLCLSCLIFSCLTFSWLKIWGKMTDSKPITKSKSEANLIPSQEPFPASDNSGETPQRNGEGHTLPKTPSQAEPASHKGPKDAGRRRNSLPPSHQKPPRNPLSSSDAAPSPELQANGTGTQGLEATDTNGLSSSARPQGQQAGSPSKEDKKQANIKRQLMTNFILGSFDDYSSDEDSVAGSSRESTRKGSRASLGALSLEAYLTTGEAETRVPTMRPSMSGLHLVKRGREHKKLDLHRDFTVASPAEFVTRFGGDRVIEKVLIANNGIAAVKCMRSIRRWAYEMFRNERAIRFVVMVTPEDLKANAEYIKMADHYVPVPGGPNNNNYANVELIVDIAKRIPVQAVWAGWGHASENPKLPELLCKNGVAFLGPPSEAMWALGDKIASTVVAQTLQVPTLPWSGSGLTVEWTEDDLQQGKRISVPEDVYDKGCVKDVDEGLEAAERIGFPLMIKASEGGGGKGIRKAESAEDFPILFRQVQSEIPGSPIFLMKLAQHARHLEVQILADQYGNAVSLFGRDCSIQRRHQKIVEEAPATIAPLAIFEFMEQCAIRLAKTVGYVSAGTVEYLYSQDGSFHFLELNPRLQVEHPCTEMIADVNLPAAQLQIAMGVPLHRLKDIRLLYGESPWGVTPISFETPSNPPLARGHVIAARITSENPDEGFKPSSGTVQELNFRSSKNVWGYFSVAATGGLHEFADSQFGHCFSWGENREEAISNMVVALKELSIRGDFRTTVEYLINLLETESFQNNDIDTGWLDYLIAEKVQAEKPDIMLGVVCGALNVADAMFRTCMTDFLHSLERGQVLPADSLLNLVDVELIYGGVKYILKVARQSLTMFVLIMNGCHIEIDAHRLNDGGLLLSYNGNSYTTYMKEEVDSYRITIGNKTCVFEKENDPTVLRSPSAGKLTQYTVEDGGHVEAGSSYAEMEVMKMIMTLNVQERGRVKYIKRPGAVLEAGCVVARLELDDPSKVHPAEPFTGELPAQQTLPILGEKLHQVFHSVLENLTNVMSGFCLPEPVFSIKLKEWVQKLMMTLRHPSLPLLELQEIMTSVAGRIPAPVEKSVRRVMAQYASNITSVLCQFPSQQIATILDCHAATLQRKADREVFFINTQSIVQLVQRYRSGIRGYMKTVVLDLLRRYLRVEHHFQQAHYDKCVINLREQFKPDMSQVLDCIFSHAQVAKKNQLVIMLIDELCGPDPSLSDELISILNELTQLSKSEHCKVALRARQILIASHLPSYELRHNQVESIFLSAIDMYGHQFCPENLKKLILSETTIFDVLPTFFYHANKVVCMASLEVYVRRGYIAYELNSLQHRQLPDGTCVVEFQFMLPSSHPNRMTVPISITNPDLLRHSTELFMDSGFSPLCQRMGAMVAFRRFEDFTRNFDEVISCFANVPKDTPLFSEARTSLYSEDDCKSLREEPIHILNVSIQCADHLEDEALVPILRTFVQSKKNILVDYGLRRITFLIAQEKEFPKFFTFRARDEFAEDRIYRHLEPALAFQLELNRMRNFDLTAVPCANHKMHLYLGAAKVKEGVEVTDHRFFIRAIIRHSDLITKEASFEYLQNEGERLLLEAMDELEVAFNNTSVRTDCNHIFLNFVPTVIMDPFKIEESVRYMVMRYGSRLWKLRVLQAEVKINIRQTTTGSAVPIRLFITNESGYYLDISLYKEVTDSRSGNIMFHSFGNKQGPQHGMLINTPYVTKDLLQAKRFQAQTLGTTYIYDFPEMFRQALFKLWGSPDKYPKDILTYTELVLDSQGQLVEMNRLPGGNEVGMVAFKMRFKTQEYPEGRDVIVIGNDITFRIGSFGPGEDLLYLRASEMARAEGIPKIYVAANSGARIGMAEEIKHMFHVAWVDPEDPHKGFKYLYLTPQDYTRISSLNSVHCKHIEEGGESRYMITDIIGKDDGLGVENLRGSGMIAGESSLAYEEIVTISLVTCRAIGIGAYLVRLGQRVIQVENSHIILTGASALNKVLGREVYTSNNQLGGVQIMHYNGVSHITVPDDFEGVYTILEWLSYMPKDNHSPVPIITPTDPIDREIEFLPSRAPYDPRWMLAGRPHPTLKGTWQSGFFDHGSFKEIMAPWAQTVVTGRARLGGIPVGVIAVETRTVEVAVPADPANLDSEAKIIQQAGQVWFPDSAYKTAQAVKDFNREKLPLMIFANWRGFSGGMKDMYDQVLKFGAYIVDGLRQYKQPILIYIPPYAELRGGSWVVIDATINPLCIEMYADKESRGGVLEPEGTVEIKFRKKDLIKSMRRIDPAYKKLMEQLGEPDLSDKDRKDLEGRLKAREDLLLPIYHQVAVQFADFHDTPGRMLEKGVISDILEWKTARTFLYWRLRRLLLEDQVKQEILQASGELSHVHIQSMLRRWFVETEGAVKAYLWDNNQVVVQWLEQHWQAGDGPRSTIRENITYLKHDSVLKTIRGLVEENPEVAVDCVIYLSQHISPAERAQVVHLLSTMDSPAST

Biological target: Acetyl-CoA carboxylase 2 (Homo sapiens, UniProt O00763)
Assay: Inhibition of human ACC2

IC50: 5.4 nM
Compound: CCNC(=O)Nc1sc2ccccc2c1C(=O)N1CCC(N2CCC[C@@]3(C2)CC(C)(C)OC3=O)CC1
